Assay [1] concerns the target full length mouse TREX1 (Mus musculus, UniProt Q91XB0). Description: mTREX1 Biochemical Assay (fluorescence, dsDNA substrate degradation). To be noted: read-out: mTREX1 IC50.
For assay [2], the target named is full length human TREX1 (Homo sapiens, UniProt Q9NSU2). Description: hTREX1 Biochemical Assay (fluorescence, dsDNA substrate degradation). The following applies: read-out: hTREX1 IC50.

Protein sequences, listed by entry. Tags and fused reporters are not part of them.
UniProt Q91XB0, whole entry: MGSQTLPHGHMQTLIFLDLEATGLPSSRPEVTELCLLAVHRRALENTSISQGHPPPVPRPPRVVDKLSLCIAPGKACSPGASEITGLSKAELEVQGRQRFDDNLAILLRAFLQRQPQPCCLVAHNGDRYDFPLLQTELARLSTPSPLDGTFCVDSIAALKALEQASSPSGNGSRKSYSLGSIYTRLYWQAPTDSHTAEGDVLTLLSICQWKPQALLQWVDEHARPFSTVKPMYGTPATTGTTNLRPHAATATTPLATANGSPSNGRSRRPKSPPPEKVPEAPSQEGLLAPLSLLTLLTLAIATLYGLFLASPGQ
UniProt Q9NSU2, whole entry: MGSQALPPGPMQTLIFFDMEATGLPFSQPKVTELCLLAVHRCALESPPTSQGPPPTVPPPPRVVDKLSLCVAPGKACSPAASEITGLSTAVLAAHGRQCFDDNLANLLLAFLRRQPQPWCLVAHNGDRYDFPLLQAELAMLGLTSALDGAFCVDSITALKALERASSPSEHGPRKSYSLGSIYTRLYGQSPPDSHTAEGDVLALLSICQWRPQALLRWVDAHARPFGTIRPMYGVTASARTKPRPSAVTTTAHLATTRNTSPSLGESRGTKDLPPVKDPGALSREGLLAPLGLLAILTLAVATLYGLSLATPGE

SMILES strings stand for the structures.

`COC(C)(C)Cn1cc(C(c2ccccc2Cl)C(C)c2nc(C(=O)Nc3cnoc3)c(O)c(=O)n2C)cn1` (single isomer, unassigned): the IC50 in assay [1] and in assay [2] was above 10 nM each time.

The record behind these values is patent US20240246946A1, “MODULATORS OF TREX1” (Constellation Pharmaceuticals, Inc., priority 2021, published 2024).
